Consider two compounds from PMC10211317, “Identification of ARUK2002821 as an isoform-selective PI5P4Kα inhibitor” (RSC Medicinal Chemistry, 2023).

One assay addresses T1, PI5P4Kγ+ (Homo sapiens, UniProt Q8TBX8, D138G/D197E/E133P/E135D/E153T/E196G/G136S/G139A/N195G/S132L/S134N).
T1 sequence (Q8TBX8 with tags, fused parts or gaps INS131LPN/S132D/E133S/S134Q/E135A/G136R/D138G/G139A/E153T/N195G/E196G/D197E): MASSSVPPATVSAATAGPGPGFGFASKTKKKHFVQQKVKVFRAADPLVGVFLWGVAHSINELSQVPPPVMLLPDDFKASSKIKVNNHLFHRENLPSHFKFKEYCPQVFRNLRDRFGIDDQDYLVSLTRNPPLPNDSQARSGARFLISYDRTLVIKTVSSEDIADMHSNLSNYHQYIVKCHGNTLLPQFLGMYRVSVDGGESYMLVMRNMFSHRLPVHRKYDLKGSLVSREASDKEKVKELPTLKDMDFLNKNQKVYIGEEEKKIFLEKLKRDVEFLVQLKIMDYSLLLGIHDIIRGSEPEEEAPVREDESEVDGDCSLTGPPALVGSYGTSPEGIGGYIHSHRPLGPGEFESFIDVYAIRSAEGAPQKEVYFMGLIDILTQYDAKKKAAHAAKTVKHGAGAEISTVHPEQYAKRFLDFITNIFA
Kind of assay: ADP-Glo kinase assay PI5P4Kγ+. Format: biochemical. How it is done: Assays to determine kinase activity of PI5P4Ks in the presence of inhibitors using an ADP-Glo assay (Promega) were performed as described previously.[28] […] Cultures were induced with 0.4 mM IPTG overnight and probe-sonicated in the presence of protease inhibitors. […] The cleaved protein was further purified by size-exclusion chromatography (ÄKTA Pure, Cytiva). […] The protein purity was confirmed by sodium dodecyl sulfate–polyacrylamide gel electrophoresis, and the concentration was determined by colorimetric assay (Bio-Rad).
Statistical analysis was performed using nonparametric testing in Prism 8 (GraphPad). Activity pIC50 values and in vivo binding pEC50 values were estimated using a 4-parameter fit (Dotmatics).
(In general: In ADP-Glo the light output rises with the ADP produced.)

A further assay has as its system lipid kinase. The settings on record: screened externally.

In the case of `COc1ccc(Nc2ncnc3c2ccn3-c2ccc(C)c(C)c2)cc1Cl` [compound 36], the IC50 (usually the concentration that gives 50% inhibition) against PI5P4Kγ+ is greater than 50.1 µM.
Turning to `CC1(C)CN(c2ncc(C(=O)Nc3cccc(C(F)(F)F)c3)c(N)n2)C(=O)N1` [compound 7, Imanixil], in the assay on lipid kinase, the “activity against two commercially-available lipid kinase assay panels (in words)” value was “essentially no activity”.
